Measured values taken from patent publication US6743429B2, “Use of calcitonin gene-related peptide in the prevention and alleviation of asthma and related bronchospastic pulmonary diseases” (Sherbrooke University, priority 1999, dated 2004).

Assays:
[1] = test system: guinea pig isolated bronchi; assay: Inhibition by CGRP of substance P-induced contraction in isolated main bronchi; format: cell-based
Procedure: Adult Hartley albino guinea pigs of either sex, weighing 200-250 g were actively sensitized to ovalbumin (OA), as described in (20). They were injected with 100 mg i.p. and 100 mg s.c. of OA on day 1 and a further 10 mg i.p. was administered as a booster on day 8. They were used experimentally 14 or 15 days later. Control animals received the vehicle solution only. All research protocols conform to the guiding principles for animal experimentation and were approved by the Ethical Committee on Animal Research of the Medical School of the Université de Sherbrooke.
Guinea pigs were killed by exsanguination following intraperitoneal injection of pentobarbitone sodium (50 mg/kg). The trachea and lungs were quickly removed and placed in cold Krebs solution. Both right and left main bronchi were dissected out and cut into spirals. Parenchymal strips (approximately 15 mm×3 mm×3 mm) were cut from the periphery of either right or left lower lobes of the lung as previously described (4, 20). Each preparation was mounted in a 5 ml organ bath containing Krebs solution (37° C.) bubbled with 5% CO2 in O2. Contractions were measured isometrically with a Grass FT03 force displacement transducer and recorded on a Grass polygraph (Model 7D) as tension changes (g). […]

[2] = test system: guinea pigs (control and OA-sensitized); assay: Substance P-induced increase in airway resistance (PIP) after intravenous CGRP; format: in vivo, guinea pig
Procedure: Guinea pigs were anaesthetized with xylazine (20 mg/kg, i.m.) and ketamine hydrochloride (130 mg/kg, i.m.). The jugular vein and trachea were cannulated and animals were mechanically ventilated with a constant-volume rodent respirator (Havard, model 683) delivering a tidal volume of 5.5 ml/kg at a frequency of 60 cycles/min via the tracheal cannula. Airway resistance was measured by the overflow technique according to well-validated and standardized procedures. Briefly, ventilation overflow (i.e., the pulmonary insufflation pressure or PIP), was recorded at the side arm of the tracheal cannula by means of a differential pressure transducer (Gould P23 ID) connected to a Grass polygraph (model 7D). Airway responsiveness was assessed by measuring the changes in PIP following i.v. injections of the agonists. Changes in PIP, which were taken as an index of changed airway resistance, were measured and expressed in mm of mercury (mm Hg). Each agonist was injected through the jugular vein cannula in a volume of 100 μl followed by a washout with 200 μl of heparinized-saline (100 units/ml).
Before starting the experiment, guinea pig airway responsiveness was first tested by a single i.v. administration of 25 μg/kg of acetylcholine. […] Only guinea pigs (control and OA-sensitized) showing a reasonably strong (>20 mm Hg) airway constriction to the cholinergic agonist were used in this study. Thereafter, substance P (SP) which was used as the main non-specific spasmogen, was injected intravenously every 20 minutes to induce bronchoconstriction. Care was taken to choose a dose of SP (13.5 μg/kg) so that the same extent of airway constriction could be induced in both animal groups. SP (13.5 μg/kg) was then administered repeatedly (approximately 3 times) until a reproducible constriction (control response) was obtained. After two SP-induced bronchoconstrictions of similar amplitude, CGRP (0.38-114 μg/kg) was administered 5 minutes before a further challenge with SP and the SP challenge was then repeated. The resulting constriction was compared with the control response i.e. the mean of the two pre-inhibition bronchoconstrictions.

allergic guinea pigs = assay: Eosinophil chemotaxis in airways of allergic guinea pigs after inhaled CGRP (BAL and lung histology); format: in vivo, guinea pig; conditions: 24 hours
Procedure: Guinea pigs were actively sensitized to ovalbumin as described above. On the days of experimentation, they were challenged by inhalation (3 min) of aerosolized ovalbumin (1.5 mg/ml). Fifteen minutes after the ovalbumin challenge, an aerosol solution of 30 μg/ml CGRP or sterile 0.9% saline solution (control) was inhaled for 10 minutes in only one dosage regime. Ovalbumin and CGRP for inhalation were dissolved in sterile 0.9% saline solution and converted into an aerosol with a portable nebulizer driven by compressed air at 7 L/min. After 24 hrs, animals were divided equally into different groups and cellular infiltration into the airways was assessed by both cytological and histopathological examinations.
Guinea pigs were anesthetized with pentobarbitone sodium, 50 mg/kg injected intraperitoneally and exsanguinated by dorsal aorta section. Bronchoalveolar lavage (BAL) was performed with 4×5 ml volumes of phosphate buffered saline (PBS) solution at 37° C. The recovered fluid was combined and the cells were pelleted by centrifugation at 1250 rpm for 10 min at 4° C. After resuspension in 1 ml of PBS, total leucocyte counts, were done with a Newbauer hemocytometer. Differential cell counts were performed on cytospin preparations stained with 5% Giemsa. Standard morphologic criteria were used to identify the population of eosinophils.
For histopathological examination of the lungs, guinea pigs were euthanized as described above. Samples of lungs were removed and fixed in Bouin's solution. After the fixation, the specimens were embedded in paraffin wax, cut into 5 mm thick sections and stained with hematoxylineosin.

[3] = CGRP 30 μg/ml aerosol inhaled 10 minutes, 15 minutes after OA-challenge

calcitonin gene-related peptide [CGRP]
inhibitory effect on SP-induced contraction, percentage of contraction developed by SP alone ([1]; control guinea pigs, main bronchus, CGRP 10^−6M, n=3): 20.3±1.5% | prevention of SP-induced bronchoconstriction ([1]; main bronchi from OA-sensitized guinea pigs): failed to significantly prevent | effect on baseline airway resistance ([2]; CGRP 3.8 mg/kg i.v., by itself): did not affect | reduction in capability to exert bronchoprotective action (OA-sensitized versus control) ([2]; CGRP 114 mg/kg i.v.): more than 40% | inhibition of SP-induced airway constriction ([2]; OA-sensitized animals, CGRP 114 mg/kg i.v.): 36% | prevention of SP-induced increase in airway constriction ([2]; OA-sensitized guinea pigs, CGRP 3.8 mg/kg i.v.): failed to significantly prevent | inhibition of SP-induced bronchoconstriction ([2]; control animals, highest dose used (0.38 to 114 mg/kg i.v.), 5 minutes before SP): 60% | effect on response to SP (13.5 mg/kg) ([2]; non-sensitized animals, CGRP 3.8 mg/kg i.v.): potently inhibited | rise in BAL-eosinophil numbers versus OA (allergic guinea pigs; [3]): 2 fold | rise in BAL-eosinophil numbers versus control (allergic guinea pigs; [3]): 12 fold | population of eosinophils in lung tissues (allergic guinea pigs; inhaled CGRP 15 minutes after OA-challenge, not shown): drastically decreased
